Assay results from patent US20240217978A1 (CHONG KUN DANG PHARMACEUTICAL CORP., priority 2021, published 2024).

Target: human adenosine A2a receptor (Homo sapiens (Human), UniProt P29274)
Assay: A2a receptor binding affinity, [3H]-NECA radioligand binding test
Conditions: read-out: binding affinity IC50 for the human adenosine A2a receptor; [3H]-NECA 37 nM; membrane from HEK-293 cells transfected with human adenosine A2a receptor
Experimental: The binding affinity of the compounds according to Examples of the present invention to the human adenosine A2a receptor was evaluated by entrusting SB drug discovery in the UK.
A radioligand binding test was conducted by using [3H]-NECA (5′-N-[adenine-2,8-3H]-ethylcarboxamidoadenosine) and an adenosine A2a membrane. As the adenosine A2a membrane, a cell membrane prepared from HEK-293 cells transfected with human adenosine A2a receptor was used. The membrane used for the test was prepared by incubating with a radioligand until equilibrium was reached. In order to separate the radioligand-bound membrane, the unbound radioligand was separated by using Packard filtermate Harverster and glass filter plates.
10 μL of test compound dissolved in binding buffer (50 mM Tris, 10 mM MgCl2, 1 mM EDTA pH 7.4) and 20 μL of [3H]-NECA (final concentration of 37 nM) or reference inhibitor was mixed with 20 μL of A2a membrane in an unbound 96-well plate and incubated at room temperature for one hour. Prior to filtration, a 96-well harvest filter plate was coated with 0.33% polyethylenimine for 30 minutes and then washed with assay buffer. The binding reaction was transferred to the filter plate and washed three times with wash buffer. The dish was then dried, scintillant was added, and radioactivity was counted in a scintillation counter (Topcount NXT, Packard). […]

## COCCN1CCN(C(=O)[C@@H]2CCCN2c2cc3nc(-c4ccco4)nn3c(N)n2)CC1
  IC50: 34 nM
